Chains of the proteins cited; added tags and fusions are not shown.
UniProt P0DMS8, whole entry: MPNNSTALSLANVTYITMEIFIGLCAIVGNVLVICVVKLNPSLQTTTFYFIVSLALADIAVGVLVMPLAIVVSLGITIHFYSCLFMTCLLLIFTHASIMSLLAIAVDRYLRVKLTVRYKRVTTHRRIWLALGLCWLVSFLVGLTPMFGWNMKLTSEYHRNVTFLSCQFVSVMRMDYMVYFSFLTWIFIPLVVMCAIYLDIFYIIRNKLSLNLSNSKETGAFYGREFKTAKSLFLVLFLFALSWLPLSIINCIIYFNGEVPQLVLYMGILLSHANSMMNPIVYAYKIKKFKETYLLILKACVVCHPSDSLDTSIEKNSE

In patent publication US20060270629A1, “Methanocarba cycloalkyl nucleoside analogues” (Govt of the U.S.A., represented by the Secretary, Dept of …, priority 2000, published 2006):

Target: cloned hA3AR (Homo sapiens, UniProt P0DMS8)
Assay: Stimulation of [35S]GTPγS binding, CHO cell membranes expressing cloned hA3AR

CCNC(=O)[C@H]1O[C@@H](n2cnc3c(N)ncnc32)[C@H](O)[C@@H]1O [NECA, 5′-N-ethyluronamidoadenosine, reference compound]
agonist efficacy at human A3 receptors: full A3 agonists | cloned hA3AR % Maximal Stimulation: 100%
